Some results for these compounds are left out of this collection, so the calls shown say nothing about other tests.
Test system: cytotoxicity, CellTiter-Glo ATP luminescence
Assay: loss of cell viability by ATP content – CellTiter-Glo, cytotoxicity control, dose response (AID 1259333)

Molecule C=C(C)C#CC(O)(C(=O)OC1CCN(C)CC1)c1ccccc1 (stereo unspecified) has an AC50 of 8.7 µM.
